Laboratory results published in patent US7754866B2 (Arena Pharmaceuticals, Inc., priority 1997, dated 2010).

Protein sequences, listed by entry. Tags and fused reporters are not part of them. Residues count along the entry.
UniProt P28335, 33-458 S310K: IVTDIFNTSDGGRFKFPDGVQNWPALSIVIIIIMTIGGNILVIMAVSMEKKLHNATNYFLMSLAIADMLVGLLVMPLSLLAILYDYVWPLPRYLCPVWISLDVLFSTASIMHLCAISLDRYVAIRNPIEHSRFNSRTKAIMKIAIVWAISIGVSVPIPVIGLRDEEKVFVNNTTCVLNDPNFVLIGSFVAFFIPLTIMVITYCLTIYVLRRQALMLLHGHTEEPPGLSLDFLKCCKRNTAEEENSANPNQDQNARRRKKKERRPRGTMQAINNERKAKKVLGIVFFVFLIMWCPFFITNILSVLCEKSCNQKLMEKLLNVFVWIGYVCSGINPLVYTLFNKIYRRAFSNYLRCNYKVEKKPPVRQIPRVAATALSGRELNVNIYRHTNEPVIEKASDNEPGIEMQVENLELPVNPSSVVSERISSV
UniProt P28223, whole entry T25N/H452Y: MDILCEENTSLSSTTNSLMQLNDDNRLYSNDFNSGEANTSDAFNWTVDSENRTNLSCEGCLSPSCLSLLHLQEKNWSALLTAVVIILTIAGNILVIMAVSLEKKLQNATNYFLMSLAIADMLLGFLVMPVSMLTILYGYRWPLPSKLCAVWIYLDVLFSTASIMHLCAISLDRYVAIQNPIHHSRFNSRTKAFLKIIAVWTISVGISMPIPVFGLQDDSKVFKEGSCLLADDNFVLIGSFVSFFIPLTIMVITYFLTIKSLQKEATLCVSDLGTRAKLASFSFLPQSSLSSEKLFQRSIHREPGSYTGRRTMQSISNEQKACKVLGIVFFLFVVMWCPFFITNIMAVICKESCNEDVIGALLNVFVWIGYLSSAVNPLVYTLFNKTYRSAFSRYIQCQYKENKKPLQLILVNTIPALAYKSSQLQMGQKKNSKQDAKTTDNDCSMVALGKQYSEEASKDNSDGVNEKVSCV
UniProt P28223, whole entry T25N, looked up: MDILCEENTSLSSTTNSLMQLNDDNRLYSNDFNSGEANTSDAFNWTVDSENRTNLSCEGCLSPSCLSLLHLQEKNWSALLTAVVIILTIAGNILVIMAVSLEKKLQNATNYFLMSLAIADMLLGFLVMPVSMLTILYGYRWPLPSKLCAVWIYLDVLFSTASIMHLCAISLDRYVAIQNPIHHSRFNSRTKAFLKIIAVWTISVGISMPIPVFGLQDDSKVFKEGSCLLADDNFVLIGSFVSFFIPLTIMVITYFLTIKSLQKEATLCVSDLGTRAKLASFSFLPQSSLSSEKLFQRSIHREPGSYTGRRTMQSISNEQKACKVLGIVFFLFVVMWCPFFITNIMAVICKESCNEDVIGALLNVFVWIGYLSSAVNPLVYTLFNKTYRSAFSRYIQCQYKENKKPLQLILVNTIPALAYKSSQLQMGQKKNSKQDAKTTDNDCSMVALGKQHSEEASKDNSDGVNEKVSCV

How the values were obtained:
[1] = target: constitutively active mutant human 5HT2C receptor AP-1 (Homo sapiens, UniProt P28335, S310K); assay: [35S]GTPγS binding assay with membranes of COS7 cells expressing AP-1
[2] = target: T1, wild type human 5HT2A receptor (Homo sapiens, UniProt P28223); assay: Competitive binding assay, [3H]LSD, WT 5HT2A; details: 1 nM [3H]LSD, COS7 membranes
T1 construct: expressed in transfected cells; host or cells: COS-7 cells, pCMV vector
Protocol: Membranes were prepared from transfected COS-7 cells (see Example 2) by homogenization in 20 mM HEPES and 10 mM EDTA, pH 7.4 and centrifuged at 49,000×g for 15 min. The pellet was resuspended in 20 mM HEPES and 0.1 mM EDTA, pH 7.4, homogenized for 10 sec. using a Polytron homogenizer (Brinkman) at 5000 rpm and centrifuged at 49,000×g for 15 min. The final pellet was resuspended in 20 mM HEPES and 10 mM MgCl2, pH 7.4, homogenized for 10 sec. using polytron homogenizer (Brinkman) at 5000 rpm.
Assays were performed in triplicate 200 μl volumes in 96 well plates. […] LSD assays were incubated for 1 Hr at 37° C., while mesulergine assays were incubated for 1 Hr at room temperature. Assays were terminated by rapid filtration onto Wallac Filtermat Type B with ice cold binding buffer using Skatron cell harvester. The radioactivity was determined in a Wallac 1205 BetaPlate counter.
The final assay ingredients comprised assay buffer (20 mM HEPES and 10 mM MgCl2), 1 nM [^3H]LSD, and 50 μg of the above-defined membranes (COS7 with AP-1). […] Incubations were performed for 1 Hour at 37° C. Receptor bound radioligand was resolved from free radioligand by rapid filtration of the assay mixture over a Wallac Filtermat™ Type B filter, followed by washing with ice-cold assay buffer using a Skatron™ cell harvester. Radioactivity was counted using a Wallac 1205 BetaPlate™ counter. Each assay plate contained five negative control wells (membranes expressing receptor and no candidate compound addition) and three positive control wells (containing 100 μM mianserin). For one concentration tests, candidate compounds were diluted into assay buffer and screened at a final concentration of 10 μM in triplicate. For IC50 determinations, candidate compounds were diluted in assay buffer and eight different concentrations were evaluated in triplicate.
WT 5HT2A LSD IC50 nM: The values in this column reflect a competitive binding assay using LSD. This column corresponds to the column appearing in the tables above which is labeled: Competitive Binding, WT 5HT2A, ([^3H]LSD), IC50 Value (μM).

[3] = target: T2, human mutated 5HT2A receptor, AP-3 (Homo sapiens, UniProt P28223, T25N); assay: Inositol phosphate accumulation assay, AP-3; assay type: cell-based;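 further: transfected 293 cells prelabeled with 3H-inositol, exposed to compound 120 min at 37 °C with LiCl and pargyline, inositol trisphosphates isolated by anion exchange and counted by scintillation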
T2 construct: Inositol Phosphate Accumulation AP-3 IC50 Value (nM); other: several concentrations; IP3 % of Control; other: one concentration of 10 μM, triplicate; control without test compound
Protocol: Candidate compound identified in the assays of Examples 9a-9c were then evaluated for inositol phosphate accumulation, following the protocol of Example 5 (COS7 cells expressing human mutated 5HT2A receptor, AP-3), modified as follows: tube A was prepared by mixing 16 μg DNA (e.g., pCMV vector; pCMV vector AP-1 cDNA, etc.) in 1.0 ml serum free DMEM (Irvine Scientific, Irvine, Calif.); tube B was prepared by mixing 60 μl lipofectamine (Gibco BRL) in 1.0 ml serum free DMEM. Tubes A and B were then admixed by inversions (several times), followed by incubation at room temperature for 30 min. The admixture is referred to as the “transfection mixture”. Plated 293 cells were washed with 10 ml Serum Free DMEM, followed by addition of 11 ml Serum Free DMEM. […] On day 3, cells were trypsinized and counted, followed by plating of 1×10^6 cells/well (12-well plates). […]
IP3% Control: The values in this column reflect an IP Accumulation Assay where the test compounds were evaluated at one concentration of 10 μM. […] The percent control value was calculated based on the control in which no test compound was added.
IP3 AP-3 IC50 mM: The values in this column reflect an IP accumulation assay in which the test compound was evaluated at several different concentrations whereby an IC50 could be determined. […]

Compound | IC50 [1] | IC50 [2] | IC50 [3]
CN1C[C@@H](NS(=O)(=O)N(C)C)C[C@@H]2c3cccc4c3c(cn4C)C[C@H]21 [Mesulergine] | 21.2 nM |  | 
Cn1cc(Br)c(-c2cccc(NC(=O)c3cccs3)c2)n1 [Compound 116102, N-[3-(4-bromo-1-methylpyrazol-3-yl)phenyl][2-thienyl]carboxamide] |  | 170 nM | 
Cn1cc(Br)c(-c2cccc(NC(=O)c3ccc(Cl)cc3)c2)n1 [Compound 116120, N-[3-(4-bromo-1-methylpyrazol-3-yl)phenyl][4-chlorophenyl]carboxamide] |  | 210 nM | 31.5 nM
Cn1cc(Br)c(-c2cccc(NC(=O)NCc3ccc(OC(F)(F)F)cc3)c2)n1 [Compound 116115] |  | 450 nM | 17.1 nM
